US20090291945A1, “CYSTEINE PROTEASE INHIBITORS” (Teijin Pharma Limited, priority 2008, published 2009)

Chains of the proteins cited; added tags and fusions are not shown. Residues count along the entry.
UniProt P43235, 115-329 limits assumed: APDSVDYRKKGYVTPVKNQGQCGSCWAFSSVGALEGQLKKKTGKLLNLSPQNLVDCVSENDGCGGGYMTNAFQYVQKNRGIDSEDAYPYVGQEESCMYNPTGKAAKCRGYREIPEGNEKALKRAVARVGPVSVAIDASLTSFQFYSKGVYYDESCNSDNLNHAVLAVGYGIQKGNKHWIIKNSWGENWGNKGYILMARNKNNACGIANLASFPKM

Target: cathepsin K (Homo sapiens, UniProt P43235)
Assay: Cathepsin K inhibitory activity (fluorescent substrate Z-Leu-Arg-MCA)
Conditions: enzyme expressed in HEK293T; 15 min preincubation, 30 min reaction at room temperature, pH 5.5
Method: Cathepsin K inhibitory activities of the compounds synthesized according to the methods of the above examples were measured.
Cathepsin K used for evaluation of inhibitory activity was transiently expressed in an animal cell HEK293T (made by GenHunter Corporation) and the active enzyme was obtained as the enzyme fraction by using detergent containing lysis buffer.
The enzyme solution A was prepared at 2.1 times final concentration by diluting the enzyme fraction with assay buffer (50 mM sodium acetate, 50 mM sodium chloride, 2 mM DTT, pH 5.5). The test compound solutions B were prepared at 50 times final target concentrations by dimethylsulfoxide (DMSO). […]
To the enzyme solution A (38.4 μL) were added the test compound solutions B (1.6 μL) and mixed individually. […] The fluorescence intensities of the enzyme reaction solutions were measured at excitation wavelength of 355 nm and measurement wavelength of 460 nm and the enzyme activities were calculated from these fluorescence intensities caused by 7-amino-4-methylcoumarine released. The enzyme activity with using DMSO instead of the test compound solution B was taken as 100% and the inhibitory rates at each concentration of the test compound were calculated. […] The 50% inhibitory concentration against cathepsin K was calculated from this curve. […]

Structure (SMILES): CC[C@@H](CNc1ccc(OC)cc1OC)NC(=O)[C@H](CC(C)C)N[C@@H](c1ccc(OC)cc1OC)C(F)(F)F
- Activity Intensity (cathepsin K inhibitory activity, pIC50 class): ++ (7.5≦pIC50<8.5: ++)

Structure (SMILES): CC[C@@H](CNc1ccc(OCC(=O)O)cc1OC)NC(=O)[C@H](CC(C)C)N[C@@H](c1ccc(S(C)(=O)=O)cc1)C(F)(F)F
- Activity Intensity (cathepsin K inhibitory activity, pIC50 class): +++ (8.5≦pIC50: +++)
